These are literature values, as cited in PMC10223992, “In Silico-Motivated Discovery of Novel Potent Glycogen Synthase-3 Inhibitors: 1-(Alkyl/arylamino)-3H-naphtho[1,2,3-de]quinoline-2,7-dione Identified as a Scaffold for Kinase Inhibitor Development” (Pharmaceuticals, 2023).

The term IC50 denotes the midpoint of a concentration-inhibition curve.

The subject of the data set is GSK-3β. Also noted: method as in ChEMBL database [53]. Conditions: Table S1, ChEMBL data; ref ChEMBL database [53]; read-out: IC50 (GSK-3β, known actives); cited from earlier work.

`NC(=O)c1cc(-c2ccncc2F)[nH]c1-c1ccccc1` [CHEMBL1271441]: the IC50 was 100 nM.
